We go through one molecule from ChEMBL document CHEMBL1914298, “Synthesis and inhibition study of monoamine oxidase, indoleamine 2,3-dioxygenase and tryptophan 2,3-dioxygenase by 3,8-substituted 5H-indeno[1,2-c]pyridazin-5-one derivatives” (Eur J Med Chem, 2011).

Sequences of proteins named here, by UniProt entry; tags and fusion partners are left off.
UniProt P27338, whole entry: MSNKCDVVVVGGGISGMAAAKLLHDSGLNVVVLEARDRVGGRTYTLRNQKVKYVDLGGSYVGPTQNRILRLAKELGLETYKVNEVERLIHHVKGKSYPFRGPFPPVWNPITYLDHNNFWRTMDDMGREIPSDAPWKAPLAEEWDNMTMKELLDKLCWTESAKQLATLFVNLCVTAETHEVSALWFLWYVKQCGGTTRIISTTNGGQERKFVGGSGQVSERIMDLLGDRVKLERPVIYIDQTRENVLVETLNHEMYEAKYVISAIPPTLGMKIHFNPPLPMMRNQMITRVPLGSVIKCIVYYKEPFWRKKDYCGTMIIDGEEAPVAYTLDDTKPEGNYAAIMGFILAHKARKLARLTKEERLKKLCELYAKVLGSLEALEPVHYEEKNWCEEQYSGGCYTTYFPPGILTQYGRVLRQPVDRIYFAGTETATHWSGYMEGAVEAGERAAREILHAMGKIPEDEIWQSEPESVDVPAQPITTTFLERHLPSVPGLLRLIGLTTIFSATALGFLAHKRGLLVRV

Broadly, the Ki is a dissociation constant, usually derived from enzyme kinetics or from competition with a known ligand.

In the test the target is Amine oxidase [flavin-containing] B (Homo sapiens, UniProt P27338). Briefly: Inhibition of human recombinant MAOB expressed in baculovirus-infected BTI insect cells after 1 hr by Cheng-Prusoff equation analysis. The procedure, abridged:
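Recombinant human MAO-B (baculovirus/BTI insect cells), luminescent activity read-out; IC50 measured experimentally and converted to Ki via Cheng-Prusoff equation; reported as mean with 95% confidence intervals, n = 3.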

Consider `Cc1cc2c(nn1)-c1cc(OCCCC(F)(F)F)ccc1C2=O`, for which the Ki amounted to 280 nM.
